Laboratory results as given in patent US20250283871A1, “COMPOSITIONS AND METHODS FOR MODULATING THE INTERACTION BETWEEN SS18-SSX FUSION ONCOPROTEIN AND NUCLEOSOMES” (Dana-Farber Cancer Institute, Inc., priority 2020, published 2025).

Assays:
[1] = target: H2AZ(1to19)K4ac1 histone form in mammalian mononucleosomes from HEK-293T cells (mammalian (HEK-293T cells)) (UniProt P0C0S5); assay: MBP-SSX1 78aa pull-down of HEK293T mononucleosomes, targeted histone MS, sample MM05_E01
[2] = target: H2A(4to11)ac0 histone form in mammalian mononucleosomes from HEK-293T cells (mammalian (HEK-293T cells)) (UniProt P0C0S8); assay: as above
[3] = target: H4(4to17)K5ac1K8ac1K12ac1K16ac1me0 histone form in mammalian mononucleosomes from HEK-293T cells (mammalian (HEK-293T cells)) (UniProt P62805); assay: as above
[4] = target: H2A(4to11)K5ac1 histone form in mammalian mononucleosomes from HEK-293T cells (mammalian (HEK-293T cells)) (UniProt P0C0S8); assay: as above
[5] = target: H4(4to17)K5ac1K16ac1me0 histone form in mammalian mononucleosomes from HEK-293T cells (mammalian (HEK-293T cells)) (UniProt P62805); assay: as above
[6] = target: H2A(12to17)K15ac1 histone form in mammalian mononucleosomes from HEK-293T cells (mammalian (HEK-293T cells)) (UniProt P0C0S8); assay: as above
[7] = target: H4(20to23)K20me2 histone form in mammalian mononucleosomes from HEK-293T cells (mammalian (HEK-293T cells)) (UniProt P62805); assay: as above
[8] = target: H4(4to17)K12ac1me0 histone form in mammalian mononucleosomes from HEK-293T cells (mammalian (HEK-293T cells)) (UniProt P62805); assay: as above
[9] = target: H2A(4to11)K5ac1K9ac1 histone form in mammalian mononucleosomes from HEK-293T cells (mammalian (HEK-293T cells)) (UniProt P0C0S8); assay: as above
[10] = target: H4(4to17)K16ac1me0 histone form in mammalian mononucleosomes from HEK-293T cells (mammalian (HEK-293T cells)) (UniProt P62805); assay: as above
[11] = target: HEK-293T mononucleosomes with histone H3K9me2S10ph1K14ac1 (mammalian (HEK-293T cells)) (UniProt P68431); assay: MBP-SSX1 78aa pull-down of HEK293T mononucleosomes, targeted quantitative histone MS, replicate 2
[12] = target: HEK-293T mononucleosomes with histone H4(4to17)K5ac1K8ac1K16ac1me0 (mammalian (HEK-293T cells)) (UniProt P62805); assay: as above
[13] = target: HEK-293T mononucleosomes with histone H2AZ(1to19)ac0 (mammalian (HEK-293T cells)) (UniProt P0C0S5); assay: as above
[14] = target: HEK-293T mononucleosomes with histone H4(4to17)ac0me0 (mammalian (HEK-293T cells)) (UniProt P62805); assay: as above
[15] = target: HEK-293T mononucleosomes with histone H3K9me2S10ph1K14ac0 (mammalian (HEK-293T cells)) (UniProt P68431); assay: as above
[16] = target: HEK-293T mononucleosomes with histone H3K9me1S10ph1K14ac1 (mammalian (HEK-293T cells)) (UniProt P68431); assay: as above
[17] = target: HEK-293T mononucleosomes with histone H3K4me0 (mammalian (HEK-293T cells)) (UniProt P68431); assay: as above
[18] = target: HEK-293T mononucleosomes with histone H4(4to17)K8ac1K12ac1me0 (mammalian (HEK-293T cells)) (UniProt P62805); assay: as above
[19] = target: HEK-293T mononucleosomes with histone H4(4to17)K16ac1me0 (mammalian (HEK-293T cells)) (UniProt P62805); assay: as above
[20] = target: HEK-293T mononucleosomes with histone H3K4me3 (mammalian (HEK-293T cells)) (UniProt P68431); assay: as above
[21] = target: HEK-293T mononucleosomes with histone H4(4to17)K12ac1me0 (mammalian (HEK-293T cells)) (UniProt P62805); assay: as above
[22] = target: HEK-293T mononucleosomes with histone H4(4to17)K12ac1K16ac1me0 (mammalian (HEK-293T cells)) (UniProt P62805); assay: as above
[23] = target: HEK-293T mononucleosomes with histone H3K4me1 (mammalian (HEK-293T cells)) (UniProt P68431); assay: as above

- log2 normalized (Light/Heavy) intensity ratio [1]: 0.048 log2
- log2 normalized (Light/Heavy) intensity ratio [2]: 0.061 log2
- log2 normalized (Light/Heavy) intensity ratio [3]: 0.245 log2
- log2 normalized (Light/Heavy) intensity ratio [4]: 0.624 log2
- log2 normalized (Light/Heavy) intensity ratio [5]: 0.367 log2
- log2 normalized (Light/Heavy) intensity ratio [6]: -0.086 log2
- log2 normalized (Light/Heavy) intensity ratio [7]: -0.391 log2
- log2 normalized (Light/Heavy) intensity ratio [8]: -0.275 log2
- log2 normalized (Light/Heavy) intensity ratio [9]: -0.049 log2
- log2 normalized (Light/Heavy) intensity ratio [10]: -0.337 log2
- log2 (Light/Heavy) ratio normalized to average of pull down input controls [11]: 1.01 log2
- log2 (Light/Heavy) ratio normalized to average of pull down input controls [12]: -0.537 log2
- log2 (Light/Heavy) ratio normalized to average of pull down input controls [13]: -0.608 log2
- log2 (Light/Heavy) ratio normalized to average of pull down input controls [14]: 0.243 log2
- log2 (Light/Heavy) ratio normalized to average of pull down input controls [15]: 0.892 log2
- log2 (Light/Heavy) ratio normalized to average of pull down input controls [16]: 0.451 log2
- log2 (Light/Heavy) ratio normalized to average of pull down input controls [17]: 0.304 log2
- log2 (Light/Heavy) ratio normalized to average of pull down input controls [18]: -0.143 log2
- log2 (Light/Heavy) ratio normalized to average of pull down input controls [19]: -0.106 log2
- log2 (Light/Heavy) ratio normalized to average of pull down input controls [20]: -0.511 log2
- log2 (Light/Heavy) ratio normalized to average of pull down input controls [21]: -0.225 log2
- log2 (Light/Heavy) ratio normalized to average of pull down input controls [22]: -0.105 log2
- log2 (Light/Heavy) ratio normalized to average of pull down input controls [23]: -0.097 log2
Substance: MBP-SSX1 (78aa) (from UniProt P0AEX9 27-392)
